Ab-14 light chain CDR variants: yeast mating affinities

Binding partner: SARS-CoV-2 spike HR2 peptide, sequence PDVDLGDISGINAS.

Parent: Ab-14, a human scFv built as VH, a 15-residue (Gly4Ser)3 linker, VL. Only the CDRs of the light chain vary.
VH: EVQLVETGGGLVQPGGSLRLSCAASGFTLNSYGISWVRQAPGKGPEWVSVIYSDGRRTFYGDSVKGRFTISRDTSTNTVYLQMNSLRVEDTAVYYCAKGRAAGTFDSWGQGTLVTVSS
VL: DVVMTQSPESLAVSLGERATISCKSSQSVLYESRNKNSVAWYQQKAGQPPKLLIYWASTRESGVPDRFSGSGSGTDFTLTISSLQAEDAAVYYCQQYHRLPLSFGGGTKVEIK

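The variants were designed computationally from a first round of random CDR variants and then made and measured. Group labels follow the data file (Ctrl: baseline library sampled from a position-specific scoring matrix, with some repeated check sequences; Rand: our label for a block that the file lists under HC and that is probably the random mutants of the ten best first-round binders; GP: Gaussian process model; GPLM: also part of the Gaussian process libraries; HC: hill climbing; Gen: genetic algorithm; Gibbs: Gibbs sampling; a sequence that several methods proposed may carry one label only). In AlphaSeq, yeast of one mating type display the scFv and yeast of the other type display the target. Pairs that bind mate more often; barcode pairs of the diploids are counted by sequencing. Read counts were normalised to the haploid input and turned into Kd by a linear fit to BCL2-family pairs of known affinity, for each replicate. The assay was run in six technical replicates.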

Substitutions are numbered in sequence along the VL above, starting at 1 (not Kabat). This list holds designs with at most six substitutions. Each Kd is an estimate from the mating assay, the geometric mean of the replicates in which the pair was seen; lower is stronger. A pair that was not seen in any replicate is written "no signal"; this usually means weak binding, but a binder can also be missed. Values of this round are not directly comparable with the first-round values of the same sequences. In the paper, a design with two or fewer of six values counts as a poor binder. Three control strains display no target. For all light chain designs, 4% of the pairings with them gave a signal, with a median of 430 nM and one signal in twenty below 38 nM, so weak values seen in few replicates may be background.

With S25V+W56Q+T59Q [GP_Gen] the result was no signal (0 of 6 replicates). For N35M+W56F+Q95Y [Ctrl], the assay gave no signal (0 of 6 replicates). For K24Y+S25L+W56H [GP_Gen], the assay gave 1.1 nM (6 of 6 replicates). The variant K24S+S25L+V29W+W56N+S62W [GP_Gibbs] gave 950 pM (6 of 6 replicates). For V29Q+W56K+H98D+R99S [Ctrl], the assay gave 11 nM (6 of 6 replicates). For S25L+S26P+V29T+W56L [GP_HC], the assay gave 3.6 nM (6 of 6 replicates). With N35K+W56D+Y97Q+H98E+R99V [Ctrl] the result was 6.3 nM (6 of 6 replicates). The variant S26L+W56G+S62D+Q96L [GP_HC] showed 2.7 nM (6 of 6 replicates). For Q27G+V29Q+S33D+W56S+T59Q [GP_Gibbs], the assay gave 5.5 nM (6 of 6 replicates).

For R34F+W56N+E61M [GP_HC], the assay gave 7.7 nM (6 of 6 replicates). With S26P+W56N [Ctrl] the result was 4.0 nM (6 of 6 replicates). With S25L+S33E+W56N+E61M [GP_Gen] the result was 600 pM (6 of 6 replicates). For S25L+V29W+L30G+W56N+T59Q [GP_Gen], the assay gave 960 pM (6 of 6 replicates). The variant S28N+K36I+W56H+Q96S [Ctrl] showed no signal (0 of 6 replicates). The variant S33K+K36E+W56D [Ctrl] showed 650 pM (6 of 6 replicates). For S25V+V29Q+S38N+W56N [GP_Gen], the assay gave 340 pM (6 of 6 replicates). The variant Y31F+W56D+A57Y+H98W [Rand] gave 1.4 nM (6 of 6 replicates). The variant S25L+S26Y+W56H+T59L+S62D [GP_HC] showed 5.4 nM (6 of 6 replicates).

The variant S25L+V29M+S38N+W56N [GP_Gen] showed 280 pM (6 of 6 replicates). The variant S25L+W56N+T59Q+E61L+S62Q [GP_Gen] showed 510 pM (6 of 6 replicates). The variant Q27S+W56G+Y97M [Ctrl] gave 47 nM (4 of 6 replicates). The variant S25I+Y31T+S33P+R34E+S103R [Ctrl] gave 7.2 nM (6 of 6 replicates). The variant S25H+R34D+W56S [Ctrl] showed 1.9 nM (6 of 6 replicates). The variant S25V+V29H+S38A+W56N+T59Q [GP_Gen] gave 2.3 nM (6 of 6 replicates). The variant K24H+S25Q+Q27P+S38N+W56N [GP_HC] gave 640 pM (6 of 6 replicates). With S25L+V29E+W56E+Q96A [GP_Gen] the result was 7.3 nM (6 of 6 replicates). The variant S25F+N35T+W56N+S62T [GPLM_HC] gave 650 pM (6 of 6 replicates).

The variant Q27I+V29Y+L30D+K36E+W56E+S62Q [GP_HC] gave 3.2 nM (6 of 6 replicates). For V29I+L30G+E61N [Ctrl], the assay gave 160 nM (6 of 6 replicates). The variant S25V+S26V+V29W+W56G+S103I [GP_HC] gave 3.4 nM (6 of 6 replicates). With R34T+S62Y+H98M [Ctrl] the result was 45 nM (4 of 6 replicates).

Source: Li et al. 2023 (doi:10.1038/s41467-023-39022-2), MIT Lincoln Laboratory and A-Alpha Bio; data file from the FLAb repository.